Patent US8703104B2, “Use of metal astringents for the treatment of hairy heel warts” (Ecolab USA Inc, priority 2007, dated 2014)

System: hairy heel wart lesions on the cows
[1] = Day 0, prior to first treatment

O=S(=O)([O-])[O-].[Cu+2] [CuSO4, copper sulfate]
Lesion Appearance Score Distribution: number of cows with Grade Score 1 (Moist granular) [1]: 4 | Lesion Appearance Score Distribution: number of cows with Grade Score 2 (granulated tissue, some moistness) [1]: 4 | Lesion Color Score Distribution: number of cows with Grade Score 1 (Bright Red) [1]: 6 | Lesion Color Score Distribution: number of cows with Grade Score 2 (Dark Red) [1]: 3 | Lesion Pain Score Distribution: number of cows with Grade Score 2 (Major pain) [1]: 1 | Locomotion Score Distribution: number of cows with Grade Score 2 (slightly abnormal gait) [1]: 4 | Locomotion Score Distribution: number of cows with Grade Score 3 (arched back, abnormal gait) [1]: 1 | Locomotion Score Distribution: number of cows with Grade Score 4 (arched back, feet can still bear some weight) [1]: 1 | Lesion Appearance Score Distribution: number of cows with Grade Score 2 (granulated tissue, some moistness) (Day 5): 4 | Lesion Appearance Score Distribution: number of cows with Grade Score 3 (Significant dry granulation) (Day 5): 1 | Lesion Color Score Distribution: number of cows with Grade Score 2 (Dark Red) (Day 5): 5 | Lesion Color Score Distribution: number of cows with Grade Score 4 (Very Dark Black; inactive lesion) (Day 5): 1 | Lesion Pain Score Distribution: number of cows with Grade Score 0 (No pain) (Day 5): 4 | Locomotion Score Distribution: number of cows with Grade Score 2 (slightly abnormal gait) (Day 5): 5 | Lesion Appearance Score Distribution: number of cows with Grade Score 2 (granulated tissue, some moistness) (Day 10): 1 | Lesion Appearance Score Distribution: number of cows with Grade Score 3 (Significant dry granulation) (Day 10): 4 | Lesion Color Score Distribution: number of cows with Grade Score 1 (Bright Red) (Day 10): 1 | Lesion Color Score Distribution: number of cows with Grade Score 2 (Dark Red) (Day 10): 5 | Lesion Color Score Distribution: number of cows with Grade Score 3 (Dark Red/Grayish Black) (Day 10): 4 | Lesion Color Score Distribution: number of cows with Grade Score 4 (Very Dark Black; inactive lesion) (Day 10): 1 | Lesion Pain Score Distribution: number of cows with Grade Score 0 (No pain) (Day 10): 1 | Lesion Pain Score Distribution: number of cows with Grade Score 2 (Major pain) (Day 10): 1 | Locomotion Score Distribution: number of cows with Grade Score 2 (slightly abnormal gait) (Day 10): 7 | Locomotion Score Distribution: number of cows with Grade Score 3 (arched back, abnormal gait) (Day 10): 1 | Lesion Appearance Score Distribution: number of cows with Grade Score 3 (Significant dry granulation) (Day 14): 3 | Lesion Color Score Distribution: number of cows with Grade Score 3 (Dark Red/Grayish Black) (Day 14): 3 | Lesion Color Score Distribution: number of cows with Grade Score 4 (Very Dark Black; inactive lesion) (Day 14): 5 | Lesion Pain Score Distribution: number of cows with Grade Score 0 (No pain) (Day 14): 5 | Lesion Appearance Score Distribution: number of cows with Grade Score 2 (granulated tissue, some moistness) (Day 19): 1 | Lesion Appearance Score Distribution: number of cows with Grade Score 3 (Significant dry granulation) (Day 19): 5 | Lesion Color Score Distribution: number of cows with Grade Score 3 (Dark Red/Grayish Black) (Day 19): 5 | Lesion Pain Score Distribution: number of cows with Grade Score 0 (No pain) (Day 19): 6 | Locomotion Score Distribution: number of cows with Grade Score 2 (slightly abnormal gait) (Day 19): 1 | Locomotion Score Distribution: number of cows with Grade Score 3 (arched back, abnormal gait) (Day 19): 1 | Locomotion Score Distribution: number of cows with Grade Score 4 (arched back, feet can still bear some weight) (Day 19): 1 | Average lesion appearance score (scale 1-5) (Grading Period 2 (Day 5)): 3.10 | Average lesion appearance score (scale 1-5) (Grading Period 3 (Day 10)): 3.45 | Average lesion appearance score (scale 1-5) (Grading Period 4 (Day 14)): 3.90 | Average lesion appearance score (scale 1-5) (Grading Period 5 (Day 19)): 3.55 | Cows that received a lesion appearance score of 4 or 5 (grading period 5): five

Like-named read-outs stand apart in the source and are kept apart here.
